Values of other authors, collected in patent US20110027291A1, “METHODS, SYSTEMS AND PRODUCTS FOR PREDICTING RESPONSE OF TUMOR CELLS TO A THERAPEUTIC AGENT AND TREATING A PATIENT ACCORDING TO THE PREDICTED RESPONSE” (MERRIMACK PHARMACEUTICALS, INC., priority 2008, published 2011).

Tested on: tumors known to express ErbB1 (EGFR)
Settings: patients, even when tumors are known to express ErbB1 (EGFR); cited from earlier work

Q: With “cetuximab: monoclonal antibody that targets the epidermal growth factor receptor (EGFR, ErbB1)” as the substance, how does the “average response rate, monotherapy” value read?
A: 15-20 % of patients
